Sequences of proteins named here, by UniProt entry; tags and fusion partners are left off. A change or cut given only in a name is not applied to a line headed by its entry.
UniProt P35370: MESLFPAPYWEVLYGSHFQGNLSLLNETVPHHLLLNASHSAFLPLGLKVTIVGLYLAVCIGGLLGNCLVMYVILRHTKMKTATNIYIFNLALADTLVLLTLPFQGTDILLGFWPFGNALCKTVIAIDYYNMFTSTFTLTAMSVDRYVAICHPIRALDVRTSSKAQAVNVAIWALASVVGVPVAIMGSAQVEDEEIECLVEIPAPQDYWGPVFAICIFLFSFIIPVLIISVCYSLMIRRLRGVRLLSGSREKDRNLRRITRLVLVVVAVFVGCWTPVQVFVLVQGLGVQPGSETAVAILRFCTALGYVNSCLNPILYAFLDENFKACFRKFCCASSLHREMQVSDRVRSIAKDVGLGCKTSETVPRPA

According to BindingDB's records for doi:10.1016/s0891-0618(03)00032-2 (University of Michigan, 2003):

Molecular target: Nociceptin receptor (Rattus norvegicus, UniProt P35370)

Question: `CC(C)C[C@H](NC(=O)[C@H](CCCCN)NC(=O)[C@H](CCCN=C(N)N)NC(=O)[C@H](C)NC(=O)[C@H](CO)NC(=O)[C@H](CCCCN)NC(=O)[C@H](CCCN=C(N)N)NC(=O)[C@H](C)NC(=O)CNC(=O)[C@@H](NC(=O)[C@H](Cc1ccccc1)NC(=O)CNC(=O)CNC(=O)[C@@H](N)Cc1ccccc1)[C@@H](C)O)C(=O)N[C@@H](C)C(=O)N[C@@H](CC(N)=O)C(=O)N[C@@H](CCC(N)=O)C(=O)O` [OFQ 1-17] was tested. Which Ki did it give?
Answer: 380 pM
